From ChEMBL document CHEMBL3430320, “Prediction of Thorough QT study results using action potential simulations based on ion channel screens” (J Pharmacol Toxicol Methods, 2014)

Chains of the proteins cited; added tags and fusions are not shown. Lines headed by an entry give the natural chain unless they say otherwise; changes in a name come on top.
UniProt Q12809: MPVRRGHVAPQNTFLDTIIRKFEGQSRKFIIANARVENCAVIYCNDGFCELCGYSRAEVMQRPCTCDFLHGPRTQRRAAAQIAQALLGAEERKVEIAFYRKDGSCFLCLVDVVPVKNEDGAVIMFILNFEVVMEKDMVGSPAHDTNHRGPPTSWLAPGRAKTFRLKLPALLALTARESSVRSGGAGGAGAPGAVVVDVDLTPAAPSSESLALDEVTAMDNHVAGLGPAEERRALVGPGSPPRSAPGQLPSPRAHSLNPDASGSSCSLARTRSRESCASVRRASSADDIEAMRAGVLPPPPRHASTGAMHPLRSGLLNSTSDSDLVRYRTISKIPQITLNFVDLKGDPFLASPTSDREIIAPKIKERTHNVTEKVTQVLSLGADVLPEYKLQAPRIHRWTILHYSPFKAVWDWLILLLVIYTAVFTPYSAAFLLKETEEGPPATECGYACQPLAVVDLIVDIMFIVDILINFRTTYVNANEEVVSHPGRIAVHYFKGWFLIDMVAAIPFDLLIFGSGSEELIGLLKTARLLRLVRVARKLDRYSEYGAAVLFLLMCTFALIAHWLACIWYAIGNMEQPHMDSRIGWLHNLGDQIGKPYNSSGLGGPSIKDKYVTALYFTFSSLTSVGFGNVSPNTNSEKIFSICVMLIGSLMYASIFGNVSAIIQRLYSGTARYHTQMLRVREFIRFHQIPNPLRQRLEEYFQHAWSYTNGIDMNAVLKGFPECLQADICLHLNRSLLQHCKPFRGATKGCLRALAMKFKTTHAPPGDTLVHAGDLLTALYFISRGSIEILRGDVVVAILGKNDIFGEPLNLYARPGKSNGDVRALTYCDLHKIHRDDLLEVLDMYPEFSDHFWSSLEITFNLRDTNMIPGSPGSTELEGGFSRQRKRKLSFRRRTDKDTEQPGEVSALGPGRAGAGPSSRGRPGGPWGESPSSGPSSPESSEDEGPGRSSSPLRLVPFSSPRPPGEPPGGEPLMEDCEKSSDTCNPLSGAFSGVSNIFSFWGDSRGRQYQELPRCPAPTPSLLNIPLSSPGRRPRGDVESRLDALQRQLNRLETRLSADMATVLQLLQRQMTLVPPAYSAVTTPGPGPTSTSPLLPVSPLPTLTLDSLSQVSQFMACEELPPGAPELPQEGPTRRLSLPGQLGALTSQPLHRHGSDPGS

Biological target: Voltage-gated inwardly rectifying potassium channel KCNH2 (Homo sapiens, UniProt Q12809)
Assay: Inhibition of rapid delayed inward rectifying potassium current (IKr) in Chinese hamster ovary (CHO) K1 cells stably expressing hERG measured using IonWorks Quattro automated patch clamp platform
Type: functional, cell-based, Cricetulus griseus

N[C@@H](CC(=O)N1CCn2c(nnc2C(F)(F)F)C1)Cc1cc(F)c(F)cc1F [SITAGLIPTIN]
pIC50: 3
